# Measured values taken from ChEMBL document CHEMBL3286229 (J Med Chem, 2014).
# Amino acid sequences for entries named in this document (tags omitted). A change or cut given only in a name is not applied to a line headed by its entry.
# UniProt P14867: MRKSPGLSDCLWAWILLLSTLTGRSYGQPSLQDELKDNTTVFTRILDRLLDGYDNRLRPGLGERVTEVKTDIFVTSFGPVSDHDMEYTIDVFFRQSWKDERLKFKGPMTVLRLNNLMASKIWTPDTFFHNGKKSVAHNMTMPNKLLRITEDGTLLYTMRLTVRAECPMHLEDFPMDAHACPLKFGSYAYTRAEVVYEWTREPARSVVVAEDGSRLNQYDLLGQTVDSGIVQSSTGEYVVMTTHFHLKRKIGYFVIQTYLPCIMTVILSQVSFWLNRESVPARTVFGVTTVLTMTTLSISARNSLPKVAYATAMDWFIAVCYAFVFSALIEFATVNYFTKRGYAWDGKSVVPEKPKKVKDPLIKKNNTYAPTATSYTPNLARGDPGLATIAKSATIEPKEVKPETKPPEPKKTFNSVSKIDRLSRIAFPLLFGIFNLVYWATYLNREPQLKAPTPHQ
# UniProt P47870: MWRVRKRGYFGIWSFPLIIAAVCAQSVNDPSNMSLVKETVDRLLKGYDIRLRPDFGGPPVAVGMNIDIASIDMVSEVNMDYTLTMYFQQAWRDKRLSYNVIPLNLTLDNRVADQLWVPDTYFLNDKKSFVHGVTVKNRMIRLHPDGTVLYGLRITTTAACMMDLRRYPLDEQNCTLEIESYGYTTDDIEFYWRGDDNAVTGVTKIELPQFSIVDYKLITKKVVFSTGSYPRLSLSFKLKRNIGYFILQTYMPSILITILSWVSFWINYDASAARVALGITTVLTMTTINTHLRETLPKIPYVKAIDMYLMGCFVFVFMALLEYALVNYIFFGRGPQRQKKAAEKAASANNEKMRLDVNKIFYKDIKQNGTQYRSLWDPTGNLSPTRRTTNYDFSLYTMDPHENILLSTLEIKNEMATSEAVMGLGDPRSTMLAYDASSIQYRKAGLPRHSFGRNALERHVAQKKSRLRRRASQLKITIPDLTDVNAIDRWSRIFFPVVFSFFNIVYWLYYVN
# UniProt P18507: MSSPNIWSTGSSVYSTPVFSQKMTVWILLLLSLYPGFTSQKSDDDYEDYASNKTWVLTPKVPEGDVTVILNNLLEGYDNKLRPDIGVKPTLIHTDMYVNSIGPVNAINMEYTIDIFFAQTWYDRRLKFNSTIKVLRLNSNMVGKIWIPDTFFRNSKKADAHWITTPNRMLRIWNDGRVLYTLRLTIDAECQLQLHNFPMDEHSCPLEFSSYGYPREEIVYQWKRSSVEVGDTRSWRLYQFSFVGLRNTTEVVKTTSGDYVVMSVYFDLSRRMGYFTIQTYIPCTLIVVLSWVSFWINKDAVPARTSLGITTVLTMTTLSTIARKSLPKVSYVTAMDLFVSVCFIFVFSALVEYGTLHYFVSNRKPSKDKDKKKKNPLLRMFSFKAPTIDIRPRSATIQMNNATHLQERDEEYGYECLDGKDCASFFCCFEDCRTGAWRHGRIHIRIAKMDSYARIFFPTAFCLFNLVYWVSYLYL
# Target: GABA-A receptor; alpha-1/beta-2/gamma-2 (Homo sapiens) (UniProt P14867+P47870+P18507)
# Assay: Modulation of GABAA alpha1beta2gamma2S receptor (unknown origin) expressed in Xenopus laevis oocytes assessed as modulation of GABA-induced chloride ion current at holding potential -70 mV at 100 uM by two-microelectrode voltage clamp assay relative to GABA-treated control
# Assay type: cell-based
row,Compound,Activity [%]
1,CCCN(CCC)C(=O)/C=C/C=C/c1ccc2c(c1)OCO2,1090
2,CCCN(CCC)C(=O)c1cccc2cc3c(cc12)OCO3,334
